Patent US20220282217A1, “COMPOSITIONS AND METHODS FOR PREPARING T CELL COMPOSITIONS AND USES THEREOF” (priority 2019, published 2022)

Experiments:
HLA-A11.01 = molecular target: T1, HLA-A11.01 (Homo sapiens, UniProt P04439, A114D/F33Y/S129P); assay: Class I MHC peptide binding stability (pMHC-I dissociation, 125I-labeled light chain); details: HLA Allele A11.01; time for half of the complexes to dissociate at 37° C.
T1 construct: made in house; host or cells: E. coli

HLA-A03.01 = HLA-A03.01 (Homo sapiens, UniProt P04439); assay: as above; design: made in house; host or cells: E. coli; details: HLA Allele A03.01; time for half of the complexes to dissociate at 37° C.

## CC(C)[C@H](N)C(=O)N[C@H](C(=O)N[C@H](C(=O)NCC(=O)N[C@@H](C)C(=O)N[C@@H](CS)C(=O)NCC(=O)N[C@H](C(=O)NCC(=O)N[C@@H](CCCCN)C(=O)O)C(C)C)C(C)C)C(C)C
HLA-A11.01
  Measured stability: 15.7 h
HLA-A03.01
  Measured stability: 2.5 h
